Columns and labels:
Type in all cases: biochemical
[1] = biological target: neuraminidase of A(H1N1)pdm09-WT (Influenza A virus, UniProt C3W5S3); conditions: read-out: IC50 NA A(H1N1)pdm09-WT
[2] = biological target: neuraminidase of B/Brisbane/60/2008 Vic (WT) (Influenza B virus, UniProt C0LT34); conditions: read-out: IC50 NA B/Brisbane/60/2008 Vic (WT)
[3] = biological target: neuraminidase of B/Perth/211/2001 Yam (WT) (Influenza B virus, UniProt Q3S340); conditions: read-out: IC50 NA B/Perth/211/2001 Yam (WT)

SMILES: CCC(CC)O[C@@H]1C=C(C(=O)O)C[C@H](N)[C@H]1NC(C)=O [OST-car, Oseltamivir carboxylate]
- IC50 [1]: 0.1 ± 0.2 nM
- IC50 [2]: 3 ± 0.5 nM
- IC50 [3]: 5 ± 1 nM
